We go through 44 compounds from PubChem BioAssay AID1362 (SRMLSC, 2008).

The list shows a part of the results, in another mix than the full data. Calls of active or inactive are those of the source. Cut-off read from the data, not from the text of the source: active = inhibition above about 58%; inactive = the rest, inconclusive results apart; tested in S. cerevisiae.

This experiment in a line: growth inhibition of WT strain, primary screen, mitochondrial fusion inhibitor project, WT and mutant strains, chemical genetic (AID 1362). The settings on record: mitochondrial fusion phenotypic screen, at 10 µM, stronger effect = higher value.
As a reminder, the inhibition is the drop in the measured response relative to a control, in per cent. As to `Cc1nn(-c2ccccc2)c2c1P(=O)(N1CCOCC1)N(C)C(c1ccccc1)=N2` (centres undefined), the inhibition was inactive: -10.8%.

On to `CC1CCC(C(C)C)C(OP(=O)(Nc2ccccn2)c2ccccc2)C1` (centres undefined), for which the inhibition is inactive: 34.3%.

Turning to `CN(C)C1(CNC(=O)c2ccc(S(C)(=O)=O)cc2)CCCCC1`, the inhibition is inactive: 9.68%.

As to `Cc1nc2ccc3ccccc3c2s1.O=[N+]([O-])c1cc([N+](=O)[O-])c(O)c([N+](=O)[O-])c1`, the inhibition was inactive: 3.07%.

For `CN(C(=O)Cc1ccc(Cl)c(Cl)c1)[C@@H]1CCCC[C@H]1N1CCCC1`, the inhibition was inactive: 1.65%.

Turning to `CC(C)/C=N\N=C(\N)N[N+](=O)[O-]`, the inhibition is inactive: 8.94%.

Take `O=P1(Nc2ccccn2)COc2ccccc2OC1`: the inhibition is inactive: -11.5%.

Consider `O=[N+]([O-])c1cc([N+](=O)[O-])c(-n2nnc3ccccc32)c([N+](=O)[O-])c1`, for which the inhibition is inactive: -15.2%.

In the case of `Clc1n[nH]nc1-c1nn[nH][15n]1`, the inhibition is inactive: -9.53%.

Take `CCOC(=O)c1ccc(NP(C)(=O)Oc2ccc(OC)cc2)cc1` (centres undefined): the inhibition is inactive: -5.33%.

For `CCOP(C)(=S)SCC(=O)NC(C)C(=O)O` (centres undefined), the inhibition was inactive: 0.3%.

As to `CP(=O)(Nc1ccccn1)Oc1ccc(Cl)cc1` (centres undefined), the inhibition is inactive: 6.72%.

On to `COP1(=S)c2c(C)nn(CCC#N)c2N=C(c2ccc(F)cc2)N1C` (centres undefined), for which the inhibition is inactive: -3.14%.

`Cc1cccc(C)c1OP(C)(=O)Nc1ccc(SC(F)(F)F)cc1` (centres undefined): the inhibition was inactive: 19.3%.

On to `CP(=O)(Oc1ccccc1)OC(c1ccccc1)C(F)(F)F` (centres undefined), for which the inhibition was inactive: 3.8%.

Regarding `CP(=O)(NC(=O)Nc1ccccc1)Oc1ccccc1` (centres undefined), the inhibition is inactive: 2.95%.

As to `O=C(COc1ccccc1)OC1CN2CCC1CC2` (centres undefined), the inhibition is inactive: -15.2%.

`Cc1cc(C)cc(OP(C)(=O)Nc2ccc(SC(F)(F)F)cc2)c1` (centres undefined): the inhibition is inactive: 0.99%.

As to `CP(=S)(Nn1cnnc1)Oc1ccccc1` (centres undefined), the inhibition was inactive: -4.31%.

As to `CP(=O)(Nc1ccccc1Br)Oc1ccccc1` (centres undefined), the inhibition is inactive: 10.5%.

On to `Cc1cc(SC(NC=O)C(Cl)(Cl)Cl)ncn1` (centres undefined), for which the inhibition is inactive: -25.1%.

Consider `O=P(Nc1ccccn1)(c1cccc2ccccc12)c1cccc2ccccc12`, for which the inhibition was inactive: 16.6%.

For the compound `COc1ccccc1OP(C)(=O)Nc1ccccc1` (centres undefined), the inhibition was inactive: -2.74%.

Consider `Cc1cc(SC(NC(=O)c2ccccc2)C(Cl)(Cl)Cl)nc(C(C)C)n1` (centres undefined), for which the inhibition is inactive: -6.07%.

As for `COc1ccccc1OP(C)(=O)Nc1ccc(C)cc1` (centres undefined), the inhibition is inactive: 7.8%.

`Cc1ccc(NP(C)(=O)Oc2ccccc2)c(C)c1` (centres undefined): the inhibition is inactive: 2.75%.

In the case of `CCOC(=O)c1ccc(NP(C)(=O)Oc2ccccc2)cc1` (centres undefined), the inhibition is inactive: -7.17%.

In the case of `ClCCSc1nnc(-c2cccnc2)o1`, the inhibition was inactive: 2.04%.

On to `Cc1cc(C)cc(OP(C)(N)=O)c1` (centres undefined), for which the inhibition was inactive: -3.99%.

Regarding `CC(C)NC(=O)NP(=O)(Oc1ccccc1)Oc1ccccc1`, the inhibition was inactive: -15%.

For `COc1ccccc1OP(C)(=O)Nc1cc(Cl)ccc1C` (centres undefined), the inhibition is inactive: 2.1%.

For `CCN(CC)C(=S)SC(NC=O)C(Cl)(Cl)Cl` (centres undefined), the inhibition is inactive: 23.4%.

In the case of `COc1ccc(OP(C)(=O)Nc2cccc(F)c2)cc1` (centres undefined), the inhibition is inactive: -0.89%.

For the compound `O=[N+]([O-])c1cc([N+](=O)[O-])c(-c2ccn[nH]2)s1`, the inhibition is inactive: 31.7%.

On to `O=[N+]([O-])c1ccc2c(c1)C=Nc1ccccc1O2`, for which the inhibition is inactive: 54.2%.

In the case of `Cc1ccc2nc3c(c(C)c2c1)CC(C(Cl)Cl)S3` (centres undefined), the inhibition was inactive: 15.9%.

Consider `CC(C)(C)c1ccc(OP(C)(=O)Nc2ccc(SC(F)(F)F)cc2)cc1` (centres undefined), for which the inhibition was active: 74.9%.

On to `Cc1cccc(C)c1OP(C)(N)=O` (centres undefined), for which the inhibition was inactive: -16.7%.

Take `COc1ccc(N/C(=N/P(=O)(N2CCOCC2)N2CCOCC2)N2CCOCC2)cc1`: the inhibition was inactive: -2.59%.

For `O=C(OC1CN2CCC1CC2)C12CC3CC(CC(C3)C1)C2` (centres undefined), the inhibition was inactive: -4.16%.

For the compound `Cc1cc(=O)[nH]c(N[N+](=O)[O-])n1`, the inhibition is inactive: -6.69%.

With `CCN(CC)CCCOC(=O)C(O)(c1ccccc1)c1ccccc1`, the inhibition was inactive: -16.2%.

As for `Cc1c2c(nc3ccccc13)SC(C(Cl)Cl)C2` (centres undefined), the inhibition is inactive: 11.8%.

Consider `COc1ccc2nc(NP(=O)(c3ccccc3)c3ccccc3)sc2c1`, for which the inhibition was inactive: -19%.
